Reference: patent publication US20250302832A1, “PYRAZINE DERIVATIVES AND USES THEREOF” (FOGHORN THERAPEUTICS INC., priority 2022, published 2025)

The chains behind the UniProt entries cited, without tags or fusion partners.
UniProt P51532, whole entry: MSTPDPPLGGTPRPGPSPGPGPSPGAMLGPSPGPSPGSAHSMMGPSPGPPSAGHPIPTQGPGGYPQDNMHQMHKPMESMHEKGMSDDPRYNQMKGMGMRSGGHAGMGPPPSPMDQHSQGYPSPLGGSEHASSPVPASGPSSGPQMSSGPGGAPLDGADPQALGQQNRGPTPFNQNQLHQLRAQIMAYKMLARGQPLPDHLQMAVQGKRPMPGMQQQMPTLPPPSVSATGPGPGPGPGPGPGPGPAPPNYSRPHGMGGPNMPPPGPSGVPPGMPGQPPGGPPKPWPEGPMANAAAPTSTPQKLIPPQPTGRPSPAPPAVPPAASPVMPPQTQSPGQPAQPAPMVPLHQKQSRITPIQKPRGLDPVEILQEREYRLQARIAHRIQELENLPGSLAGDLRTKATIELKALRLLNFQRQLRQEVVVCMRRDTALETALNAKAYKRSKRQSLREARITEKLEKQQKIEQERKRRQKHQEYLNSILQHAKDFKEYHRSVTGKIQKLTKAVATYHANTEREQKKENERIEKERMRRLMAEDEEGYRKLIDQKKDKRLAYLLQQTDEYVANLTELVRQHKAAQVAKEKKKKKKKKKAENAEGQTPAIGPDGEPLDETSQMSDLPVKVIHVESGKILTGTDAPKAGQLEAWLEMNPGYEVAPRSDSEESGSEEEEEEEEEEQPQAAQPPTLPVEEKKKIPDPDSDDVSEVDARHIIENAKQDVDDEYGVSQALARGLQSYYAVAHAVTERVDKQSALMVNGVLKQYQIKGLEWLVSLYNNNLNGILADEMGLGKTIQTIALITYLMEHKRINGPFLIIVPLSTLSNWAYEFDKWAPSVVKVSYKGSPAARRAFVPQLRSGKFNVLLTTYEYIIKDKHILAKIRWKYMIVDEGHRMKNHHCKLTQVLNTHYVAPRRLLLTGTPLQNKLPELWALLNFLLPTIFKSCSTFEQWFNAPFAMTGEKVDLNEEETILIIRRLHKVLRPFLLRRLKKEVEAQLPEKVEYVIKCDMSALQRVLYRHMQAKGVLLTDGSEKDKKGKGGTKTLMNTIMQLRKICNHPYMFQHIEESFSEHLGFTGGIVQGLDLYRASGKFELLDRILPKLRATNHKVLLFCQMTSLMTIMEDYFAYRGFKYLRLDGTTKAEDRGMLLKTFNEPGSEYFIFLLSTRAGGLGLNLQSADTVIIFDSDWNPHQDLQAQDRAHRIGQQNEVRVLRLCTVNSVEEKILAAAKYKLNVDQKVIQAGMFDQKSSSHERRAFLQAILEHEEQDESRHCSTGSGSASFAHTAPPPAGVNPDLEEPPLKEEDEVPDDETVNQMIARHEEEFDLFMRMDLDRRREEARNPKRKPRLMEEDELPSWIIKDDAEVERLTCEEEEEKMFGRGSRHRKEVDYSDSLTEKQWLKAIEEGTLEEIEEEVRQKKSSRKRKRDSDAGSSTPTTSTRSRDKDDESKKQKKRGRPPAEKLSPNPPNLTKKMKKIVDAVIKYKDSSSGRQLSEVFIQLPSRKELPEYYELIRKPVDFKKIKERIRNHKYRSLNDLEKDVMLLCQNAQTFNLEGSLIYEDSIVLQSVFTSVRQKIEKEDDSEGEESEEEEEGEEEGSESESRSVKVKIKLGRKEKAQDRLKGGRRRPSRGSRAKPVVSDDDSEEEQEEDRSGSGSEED

Biological target: T1, HiBit-BRG1 fusion protein (Homo sapiens, UniProt P51532)
T1 construct: expressed in transfected cells
Assay: HiBiT-BRG1 cell-based degradation assay (Nano-Glo HiBiT lytic detection, 24 h)
Conditions: HeLa, read-out: BRG1 HiBit Degradation Maximum (%)
Experimental: Procedure: A stable HeLa cell line expressing HiBiT-BRM was generated. On day 0, 5000 cells were seeded in 40 μL of media into each well of 384-well cell culture plates. […] Subsequently plates were incubated for 24 h in a standard tissue culture incubator and equilibrated at room temperature for 15 minutes. Nano-GB HiBiT Lytic Detection System (Promega N3050) reagent was freshly prepared and 20 ul was added to each well. Upon addition of this LgBit-containing reagent, the HiBiT and LgBiT proteins associate to form the luminescent NanoBiT luciferase. The plates were shaken for 10 minutes at room temperature and the bioluminescence read using an EnVision plate reader (PerkinElmer).
For measurement of BRG1 degradation, a stable HeLa cell line expressing HiBit-BRG1 and LgBit was generated. The same protocol as above was then followed.
The degradation % was calculated using the following formula: % degradation=100%−100%×(Lumsample−LuMLC)/(LuMHC−LuMLC). DMSO treated cells are employed as High Control (HC) and 2 μM of a known BRM/BRG1 degrader standard treated cells are employed as Low Control (LC).

Cc1ncsc1-c1ccc([C@H](C)NC(=O)[C@@H]2C[C@@H](O)CN2C(=O)[C@@H](c2cc(OCCCN3CC(c4cc5nnc(-c6ccccc6O)cc5[nH]4)C3)no2)C(C)C)cc1 [Compound 3, (2S,4R)-4-hydroxy-1-((R)-2-(3-(3-(3-(3-(2-hydroxyphenyl)-5H-pyrrolo[3,2-c]pyridazin-6-yl)azetidin-1-yl)propoxy)isoxazol-5-yl)-3-methylbutanoyl)-N-((S)-1-(4-(4-methylthiazol-5-yl)phenyl)ethyl)pyrrolidine-2-carboxamide, formic acid]
Dmax: < 50%
